# “And” between values parts separate entries of the source, which are not always exact repeats. Equal values may be shown once. “Also recorded” adds a separate entry of the source.
# Experiments:
# [1] = system: Kv4.2-GFP; assay: GxTX-594 labeling and colocalization imaging, Kv4.2-GFP; format: binding, rat
# [2] = biological target: T1, Kv2.1 (Rattus norvegicus, UniProt P15387); assay: GxTX-594 fluorescence equilibration after dilution from 100 nM to 9 nM; format: binding; details: 9 min after dilution from 100 nM to 9 nM, on average
# T1 sequence (P15387 1-857): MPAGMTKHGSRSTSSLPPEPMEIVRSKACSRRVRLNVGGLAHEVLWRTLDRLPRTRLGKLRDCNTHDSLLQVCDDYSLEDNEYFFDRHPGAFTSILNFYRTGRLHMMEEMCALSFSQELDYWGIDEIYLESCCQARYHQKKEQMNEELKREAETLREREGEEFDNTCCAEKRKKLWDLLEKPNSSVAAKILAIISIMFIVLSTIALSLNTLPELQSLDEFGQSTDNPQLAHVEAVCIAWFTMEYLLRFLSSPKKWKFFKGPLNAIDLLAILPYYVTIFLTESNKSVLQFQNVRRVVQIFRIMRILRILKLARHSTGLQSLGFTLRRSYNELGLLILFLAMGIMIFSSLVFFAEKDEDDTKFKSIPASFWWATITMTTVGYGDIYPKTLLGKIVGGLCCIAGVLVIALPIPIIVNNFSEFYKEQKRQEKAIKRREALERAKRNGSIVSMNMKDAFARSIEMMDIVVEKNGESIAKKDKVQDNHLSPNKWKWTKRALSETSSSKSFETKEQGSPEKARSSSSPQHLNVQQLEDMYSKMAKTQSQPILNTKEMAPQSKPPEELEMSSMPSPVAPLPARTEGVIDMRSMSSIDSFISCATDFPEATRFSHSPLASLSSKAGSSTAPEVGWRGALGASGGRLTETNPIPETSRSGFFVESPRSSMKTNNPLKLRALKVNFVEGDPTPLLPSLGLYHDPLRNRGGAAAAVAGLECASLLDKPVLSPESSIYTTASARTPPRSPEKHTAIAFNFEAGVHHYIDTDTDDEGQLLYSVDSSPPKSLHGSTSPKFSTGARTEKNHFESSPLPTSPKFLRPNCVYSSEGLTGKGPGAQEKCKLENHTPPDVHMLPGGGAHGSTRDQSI
# [3] = system: CHO cells in the absence of Kv2 proteins; assay: GxTX-594 labeling of CHO cells lacking Kv2 proteins; format: binding, Chinese hamster; details: 100 nM then diluted to 9 nM
# In short: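 Nontransfected CHO cells and Kv2.1-GFP or Kv2.2-GFP transfected cells were incubated with 100 nM test compound plus 5 μg/ml WGA-405. Both were then diluted to 9 nM and 0.45 μg/ml before Airy disk imaging above the glass-adhered surface. WGA-405 fluorescence served as a mask for manually drawn ROIs. Per-cell 594-nm versus 488-nm intensities were compared between cells with and without obvious GFP.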
# [4] = system: Kv2 voltage sensors; details: Table 1 input parameter; ref Tilley et al., 2019; cited from earlier work
# [5] = system: Kv2.1-GFP in CA1 hippocampal pyramidal neurons; assay: Two-photon imaging of GxTX-594 in hippocampal slices transfected with Kv2.1-GFP; format: binding, rat; details: 100 nM
# In short: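 Rat organotypic hippocampal slices were labeled with 100 nM test compound. CA1 pyramidal neurons were imaged by two-photon excitation 2, 4 or 6 d after Kv2.1-GFP transfection. Slices were held under a gold-wire weight in a chamber with recirculating ACSF at 30°C.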
# [6] = biological target: T2, Kv2.1 (Kv2.1-CHO cells) (Rattus norvegicus, UniProt P15387); assay: Voltage clamp fluorometry of GxTX-594 on Kv2.1-CHO cells; format: cell-based
# T2 sequence (P15387 1-857): T1 sequence (P15387 1-857)
# [7] = system: Kv1.5-GFP; assay: GxTX-594 labeling and colocalization imaging, Kv1.5-GFP; format: binding, rat
# [8] = system: Kv2 voltage sensors; assay: EVAP model calculations; details: Table 1
# [9] = system: Kv2.1-GFP; assay: GxTX-594 labeling and colocalization imaging, Kv2.1-GFP; format: binding, rat
# [10] = biological target: T2, Kv2.1 (Kv2.1-CHO cells); assay: GxTX-594 concentration-effect imaging; format: binding
# In short: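 Kv2.1-CHO cells were induced with 1 μg/ml minocycline for 48 h and imaged in CE buffer with 10 mM glucose and 1% BSA. Three 10-fold serial dilutions of 1,000 nM were perfused (~1 ml per 10 s), each for 15 min with 15 min washout between. Images were taken every 5 s near the glass-adhered surface and not background subtracted. Intensity was normalized to Fmax at 1,000 nM. Post-washout fluorescence was fitted with a Langmuir isotherm; three experiments.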
# [11] = biological target: T2, Kv2.1 (Kv2.1-CHO cells); assay: Voltage clamp fluorometry with repetitive 2-ms voltage steps, Kv2.1-CHO cells; format: cell-based
# [12] = biological target: T2, Kv2.1 (Kv2.1-CHO cells); format: cell-based
# [13] = 9 nM GxTX-594, step from −80 mV, monoexponential fit, exemplar cell, ± SD of fit
# [14] = 9 nM, ROI hand-drawn to contain apparent cell surface, representative trace
# [15] = 9 nM, glass-adhered surface, circle 1.8 μm diameter, representative trace
# [16] = 9 nM, glass-adhered surface, circle 4.9 μm diameter, representative trace
# [17] = 9 nM, glass-adhered surface, circle 9.1 μm diameter, representative trace
# [18] = step −80 mV to 0 mV, representative trace
compound,measurement,setting,value
"CCCC[C@H](NC(=O)[C@@H]1CCCN1C(=O)[C@H](Cc1ccccc1)NC(=O)[C@H](CC(N)=O)NC(=O)[C@@H]1CSSC[C@@H]2NC(=O)[C@H](C)NC(=O)[C@@H]3CCCN3C(=O)[C@H](CCCCN)NC(=O)CNC(=O)[C@H](CSC3CC(=O)N(CCCCCNC(=O)c4ccc(C5=c6cc7c(cc6Oc6cc8c(cc65)C(CS(=O)(=O)O)=CC(C)(C)N8C)=[N+](C)C(C)(C)C=C7CS(=O)(=O)[O-])c(C(=O)O)c4)C3=O)NC(=O)CNC(=O)[C@@H]3CSSC[C@H](NC(=O)[C@H](C(C)C)NC(=O)[C@H](Cc4ccc(O)cc4)NC(=O)[C@H](CCCCN)NC(=O)[C@@H]4CCCN4C(=O)[C@H](CSSC[C@H](NC(=O)[C@H](CCC(=O)O)NC(=O)CNC(=O)[C@@H](N)CCC(=O)O)C(=O)NCC(=O)NCC(=O)N[C@@H](Cc4ccccc4)C(=O)N[C@@H](Cc4c[nH]c5ccccc45)C(=O)N[C@@H](Cc4c[nH]c5ccccc45)C(=O)N[C@@H](CCCCN)C(=O)N3)NC2=O)C(=O)N[C@@H](CO)C(=O)N2CCC[C@H]2C(=O)N[C@@H](CCCCN)C(=O)N[C@@H](Cc2c[nH]c3ccccc23)C(=O)NCC(=O)N[C@@H](CC(C)C)C(=O)N1)C(=O)N1CCC[C@H]1C(=O)O (stereo partly shown) [GxTX-594, Ser13Cys (Alexa Fluor 594) GxTX-1E]",ratio of GxTX-594 fluorescence to GFP,"[1]; Kv4.2-GFP + KChIP2, 100 nM, rinsed, n = 13 cells",not distinguishable from zero
same,labeling without auxiliary subunits (Fig. S2),"[1]; Kv4.2-GFP without KChIP2, confocal, 100 nM",no indication of GxTX-594 labeling
same,colocalization with GFP-tagged channel,"[1]; Kv4.2-GFP, Pearson correlation, 100 nM",no colocalization was apparent
same,equilibration completed after dilution,[2],85%
same,labeling of CHO cells in the absence of Kv2 proteins,[3],failed to find any GxTX-594 labeling
same,"V1/2,labeled",[4],41 mV
same,colocalization with Kv2.1-GFP in neurons after washout,"[5]; 5 min, two-photon",GxTX-594 fluorescence remained colocalized with Kv2.1-GFP
same,intensity of labeling of neighboring neurons not expressing Kv2.1-GFP,"[5]; 5 min, two-photon",roughly an order of magnitude dimmer
same,non-Kv2 labeling in slices,[5]; most prevalent at slice surface,occasionally labels structures not consistent with Kv2 proteins
same,residual fluorescence at +80 mV,[6]; 9 nM GxTX-594,some GxTX-594 fluorescence remained
same,range in kΔF values at +80 mV,"[6]; 9 nM GxTX-594, cell-to-cell",ninefold range
same,range in kΔF values at −80 mV,"[6]; 9 nM GxTX-594, cell-to-cell",twofold range
same,z of fluorescence–voltage (FV) relation,"[6]; 9 nM GxTX-594, end of 50-s steps, first-order Boltzmann fit",1.38 ± 0.13 e0 and 1.4 e0 and 1.4 ± 0.1 e0
same,z of kΔF–voltage relation,"[6]; 9 nM GxTX-594, first-order Boltzmann fit, poorly constrained",1.43 ± 0.35 e0 and 1.4 ± 0.4 e0
same,"kΔF at periphery vs center of cell, −80 mV","[6]; 9 nM GxTX-594, labeling",~10 fold
same,kΔF at 0 mV,[6]; [13],0.1279 ± 0.0023 s⁻¹
same,kΔF at 40 mV,[6]; [13],0.2492 ± 0.0062 s⁻¹
same,kΔF at 80 mV,[6]; [13],0.42 ± 0.011 s⁻¹
same,kΔF at −40 mV,[6]; [13],0.0215 ± 0.0022 s⁻¹
same,"kΔF at periphery vs center of cell, 40 mV","[6]; 9 nM GxTX-594, unlabeling",approximately threefold faster
same,average kΔF at −80 mV,"[6]; 9 nM GxTX-594, voltage-clamped Kv2.1-CHO cells",0.0014 s⁻¹
same,"kΔF at 40 mV, ROI 4",[6]; [14],0.0969 ± 0.0033 s⁻¹
same,"kΔF at −80 mV, ROI 4",[6]; [14],0.00546 ± 0.00013 s⁻¹
same,"kΔF at 40 mV, ROI 1",[6]; [15],0.0429 ± 0.0026 s⁻¹
same,"kΔF at −80 mV, ROI 1",[6]; [15],0.000427 ± 1.1e-05 s⁻¹
same,"kΔF at 40 mV, ROI 2",[6]; [16],0.0439 ± 0.0016 s⁻¹
same,"kΔF at −80 mV, ROI 2",[6]; [16],0.0007999 ± 5.3e-06 s⁻¹
same,"kΔF at 40 mV, ROI 3",[6]; [17],0.0565 ± 0.0015 s⁻¹
same,"kΔF at −80 mV, ROI 3",[6]; [17],0.0027556 ± 7.4e-06 s⁻¹
same,kΔF at 27°C,[6]; [18],0.0247 ± 0.0039 s⁻¹
same,kΔF at 37°C,[6]; [18],0.0754 ± 0.0054 s⁻¹
same,ratio of GxTX-594 fluorescence to GFP,"[7]; Kv1.5-GFP + Kvβ2, 100 nM, rinsed, n = 13 cells",not distinguishable from zero
same,labeling without auxiliary subunits (Fig. S2),"[7]; Kv1.5-GFP without Kvβ2, confocal, 100 nM",no indication of GxTX-594 labeling
same,colocalization with GFP-tagged channel,"[7]; Kv1.5-GFP, Pearson correlation, 100 nM",no colocalization was apparent
same,"koff,resting",[8]; from saturating kΔF at negative voltages and Kd,0.0081 s⁻¹
same,"koff,activated",[8]; saturating amplitude of Boltzmann fit to kΔF at positive voltages,0.39 s⁻¹
same,"Pearson correlation coefficients for Kv2.1 or Kv2.2 vs Kv1.5, Kv4.2, or BK","[9]; 100 nM (Fig. 4 C), Mann–Whitney P < 0.0001",Significant differences were observed
same,"594:488 ratio for Kv2.1 or Kv2.2 vs Kv1.5, Kv4.2, or BK","[9]; 100 nM, with β subunits (Fig. 4 B), Mann–Whitney P < 0.0001",Significant differences were observed
same,"GxTX:GFP ratio for Kv2.1 or Kv2.2 vs Kv1.5, Kv4.2, or BK","[9]; 100 nM, without β subunits (Fig. S2 C), Mann–Whitney P < 0.0001",Significant differences were observed
same,"ratio of GxTX-594 to GFP fluorescence, Kv2.1-GFP vs Kv2.2-GFP","[9]; 100 nM, Mann–Whitney U test P = 0.74",did not detect a significant difference; also recorded: No significant difference was detected
same,subcellular colocalization with Kv2.1-GFP,"[9]; CHO cells, 100 nM, 5 min, Pearson correlation",high degree of subcellular colocalization
same,koff,[10],0.000593 s⁻¹
same,kon,[10],63700 M⁻¹ s⁻¹
same,average kΔF,"[10]; 10 nM GxTX-594, concentration–effect experiments, unclamped cells",0.0011 s⁻¹
same,labeling of glass-adhered surface,"[10]; 100 nM, 5 min",near-maximal labeling
same,kΔF at 200 Hz,"[11]; 9 nM GxTX-594, 2-ms steps −80 to +40 mV, representative trace",0.2327 ± 0.0099 × 10^−1 s^−1
same,unlabeling and kΔF vs stimulus frequency,"[11]; 9 nM, 0.02–200 Hz",increased with stimulus frequency
same,fluorescence decrease compared with EVAP model at and >50 Hz,"[11]; 9 nM, 2-ms steps −80 to +40 mV",fluorescence decreased by more than the EVAP model predicted
same,"V1/2, mean midpoint of each of four independent voltage sensors","[12]; 100 nM GxTX-594, 5 min, fourth-power Boltzmann fit of tail GV, mean ± SD, n = 11",+27 ± 10 mV
same,"z, elementary charges associated with Boltzmann fit","[12]; 100 nM GxTX-594, fourth-power Boltzmann fit, mean ± SD, n = 11",1.0 ± 0.4 e0
same,conduction by Kv2.1–GxTX-594 complex,[12]; physiological voltage range,does not open to conduct K^+ ions in the physiological voltage range
same,range of V1/2,"[12]; with GxTX-594, cell-to-cell variance",36 mV
